T1: human CLDN6 (claudin 6), full length (human, UniProt P56747 1-220)
T1 construct: denatured cell lysate in the Western blot; also called NP 067018.2
T1 sequence: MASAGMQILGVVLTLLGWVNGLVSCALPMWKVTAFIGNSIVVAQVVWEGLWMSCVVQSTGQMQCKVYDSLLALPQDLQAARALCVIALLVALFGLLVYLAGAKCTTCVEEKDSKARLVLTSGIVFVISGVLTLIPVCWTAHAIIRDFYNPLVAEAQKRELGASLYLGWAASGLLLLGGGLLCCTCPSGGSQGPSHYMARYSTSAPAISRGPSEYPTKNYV

B1: chimeric monoclonal antibody chimAB 64A (antibody, human IgG1, kappa, V domains shown)
VH: EVQLQQSGPELVKPGASMKISCKASGYSFTGYTMNWVKQSHGKNLEWIGLINPYNGGTIYNQKFKGKATLTVDKSSSTAYMELLSLTSEDSAVYYCARDYGFVLDYWGQGTTLTVSS
VL: QIVLTQSPSIMSVSPGEKVTITCSASSSVSYMHWFQQKPGTSPKLCIYSTSNLASGVPARFSGRGSGTSYSLTISRVAAEDAATYYCQQRSNYPPWTFGGGTKLEIKR
notes: Mouse/human chimeric IgG1, kappa
B2: chimeric monoclonal antibody chimAB 61D (antibody, human IgG1, kappa, V domains shown)
VH: EVQLQQSGPELVKPGASMKISCKASGYSFTGYTMNWVKQSHGKNLEWIGLINPYNGGTSYNQKFKGKATLTIDKSSSTAYMELLSLTSEDSAVYYCARDYGYVLDYWGQGTTLTVSS
VL: QIVLTQSPAIMSASPGEKVTITCSASSSVSYLHWFQQKPGTSPKLWVYSTSNLPSGVPARFGGSGSGTSYSLTISRMEAEDAATYYCQQRSIYPPWTFGGGTKLEIKR
notes: as for B1

Columns and labels:
[1] = molecular target: T1, human CLDN6 (claudin 6), full length; test: flow cytometry on OV90 ovarian cancer cells endogenously expressing CLDN6, median fluorescence
[2] = molecular target: T1, human CLDN6 (claudin 6), full length; test: as above; remark: listed apart in the source
[3] = molecular target: T1, human CLDN6 (claudin 6), full length; test: flow cytometry on NEC8 testicular cancer cells endogenously expressing CLDN6, median fluorescence
[4] = molecular target: T1, human CLDN6 (claudin 6), full length; test: as above; remark: listed apart in the source
[5] = molecular target: T1, human CLDN6 (claudin 6), full length; test: flow cytometry, saturation binding on HEK293 cells stably expressing human CLDN6, median fluorescence
[6] = molecular target: T1, human CLDN6 (claudin 6), full length; test: flow cytometry, OV90 ovarian cancer cells endogenously expressing CLDN6
[7] = molecular target: T1, human CLDN6 (claudin 6), full length; test: flow cytometry, NEC8 testicular cancer cells endogenously expressing CLDN6
[8] = molecular target: T1, human CLDN6 (claudin 6), full length; test: flow cytometry saturation binding, HEK293 cells stably expressing human CLDN6

EC50 (read off the curve) [1] [µg/mL]	EC50 (read off the curve) [2] [µg/mL]	EC50 (read off the curve) [3] [µg/mL]	EC50 (read off the curve) [4] [µg/mL]	EC50 (read off the curve) [5] [µg/mL]	EC50 [6] [µg/mL]	EC50 [7] [µg/mL]	EC50 [8] [µg/mL]	Binder
~0.6	~0.5	~0.6	~0.5	~0.5	–	–	–	B1
–	–	–	–	–	1.5	1.7	2.3	B2

Source: patent US20160264677A1 (GANYMED PHARMACEUTICALS, published 2016)
